From PubChem BioAssay AID1321 (The Scripps Research Institute Molecular Screening Center, 2008)
This is a selection; strong and weak results do not stand in their true shares. Calls of active or inactive are those of the source.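 The calls were made as follows: active = activation above the mean of all tested compounds plus 3 SD, set per screening run (cut at about 8.8% in these data); inactive = the rest.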

Sequences of proteins named here, by UniProt entry; tags and fusion partners are left off.
UniProt P30291, whole entry K328M: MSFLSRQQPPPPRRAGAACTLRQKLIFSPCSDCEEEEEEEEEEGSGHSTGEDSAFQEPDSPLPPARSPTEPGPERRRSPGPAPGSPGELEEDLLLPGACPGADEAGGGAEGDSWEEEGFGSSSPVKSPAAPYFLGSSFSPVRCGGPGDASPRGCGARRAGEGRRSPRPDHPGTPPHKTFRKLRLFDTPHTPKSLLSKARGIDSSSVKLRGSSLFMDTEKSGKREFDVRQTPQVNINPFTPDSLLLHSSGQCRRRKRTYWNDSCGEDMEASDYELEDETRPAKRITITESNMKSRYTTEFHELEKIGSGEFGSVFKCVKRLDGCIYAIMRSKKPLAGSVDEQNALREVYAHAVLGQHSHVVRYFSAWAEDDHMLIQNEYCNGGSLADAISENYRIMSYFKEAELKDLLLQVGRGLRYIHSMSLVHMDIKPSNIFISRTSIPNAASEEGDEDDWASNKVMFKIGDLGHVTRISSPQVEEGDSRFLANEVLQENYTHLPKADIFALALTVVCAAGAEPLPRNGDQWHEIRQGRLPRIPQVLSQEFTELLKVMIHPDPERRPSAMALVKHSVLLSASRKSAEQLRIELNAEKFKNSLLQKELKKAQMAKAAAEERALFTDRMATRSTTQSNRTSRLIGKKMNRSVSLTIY

Molecular target: Wee1-like protein kinase (Homo sapiens) (UniProt P30291)
Experiment: Wee1 degradation inhibitors, primary screen, cell-based, HeLa, Wee1K328M-luciferase, luminescence (AID 1321);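 also: cells exposed to compound for 20 h before luminescence read; 0% = DMSO alone and 100% = MG132 at 30 µM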
Conditions: HeLa Luc-Wee1K328M stability, at 5 µM, active compounds read high, 100% = proteasome inhibitor MG132 effect

Row | Compound | reporter increase
1 | CCOC(=O)c1ccc(NP(C)(=O)Oc2ccccc2)cc1 (configuration not stated) | inactive: 3.59%
2 | CP(=O)(Nc1ccccc1Br)Oc1ccccc1 (configuration not stated) | inactive: 1.91%
3 | COc1ccccc1OP(C)(=O)Nc1ccccc1 (configuration not stated) | inactive: -3.1%
4 | CP(=S)(Nn1cnnc1)Oc1ccccc1 (configuration not stated) | inactive: -1.11%
5 | Cc1cc(C)cc(OP(C)(=O)Nc2ccc(SC(F)(F)F)cc2)c1 (configuration not stated) | inactive: -2.1%
6 | CP(=O)(NC(=O)Nc1ccccc1)Oc1ccccc1 (configuration not stated) | inactive: -2.3%
7 | CCc1ccc(OP(C)(=O)N2CCN(c3ccc([N+](=O)[O-])cc3)CC2)cc1 (configuration not stated) | inactive: 1.75%
8 | CP(=O)(Oc1ccccc1)OC(c1ccccc1)C(F)(F)F (configuration not stated) | inactive: 2.2%
9 | Cc1cccc(C)c1OP(C)(=O)Nc1ccc(SC(F)(F)F)cc1 (configuration not stated) | inactive: -0.6%
10 | CP(=O)(Nc1ccc(SC(F)(F)F)cc1)Oc1ccc(Cl)cc1 (configuration not stated) | inactive: 4.93%
11 | CP(=O)(Nc1ccccn1)Oc1ccc(Cl)cc1 (configuration not stated) | inactive: -0.89%
12 | CCOC(=O)c1ccc(NP(C)(=O)Oc2ccc(OC)cc2)cc1 (configuration not stated) | inactive: -3.92%
13 | CCOP(C)(=S)SCC(=O)NC(C)C(=O)O (configuration not stated) | inactive: -3.67%
14 | O=C(OCCCN1CCCC1)C(O)(c1ccccc1)C1CCCCC1 (configuration not stated) | inactive: 3.42%
15 | COc1ccccc1OP(C)(=O)Nc1c(C)n(C)n(-c2ccccc2)c1=O (configuration not stated) | inactive: -0.29%
16 | CCc1ccc(OP(C)(=O)Nc2cccnc2)cc1 (configuration not stated) | inactive: -1.72%
17 | CP(=O)(Oc1ccccc1)N1CCOC1=O (configuration not stated) | inactive: -0.94%
18 | COc1ccc(OP(C)(=O)Nc2ccc(Br)cc2)cc1 (configuration not stated) | inactive: 4.13%
19 | CCN(CC)CC(O)COC(=O)C(O)(c1ccccc1)C1CCCCC1 (configuration not stated) | inactive: 0.7%

Row | Compound | reporter increase
20 | CN(C)C(=O)c1c([N+](=O)[O-])cc([N+](=O)[O-])cc1[N+](=O)[O-] | inactive: -1.34%
21 | COc1ccccc1OP(C)(=O)Nc1ccccc1Br (configuration not stated) | inactive: -3.42%
22 | CC(C)(C)c1ccc(OP(C)(=O)O)cc1 | inactive: 0.86%
23 | CP(=O)(Nc1ccc(Cl)cc1)Oc1ccc(F)cc1 (configuration not stated) | inactive: -2.65%
24 | CCOC(=O)c1ccc(NP(C)(=O)Oc2ccc(Cl)cc2)cc1 (configuration not stated) | inactive: 0.42%
25 | CP(=O)(OC12CC3CC(CC(C3)C1)C2)OC12CC3CC(CC(C3)C1)C2 | inactive: 3.16%
26 | COc1ccccc1OP(C)(=O)Nc1ccc(C)c(C)c1 (configuration not stated) | inactive: 4.12%
27 | COc1ccc(OP(C)(=O)Nc2ccccc2Br)cc1 (configuration not stated) | inactive: -0.43%
28 | Cc1cc(C)cc(OP(C)(=O)Nc2cccc(C(F)(F)F)c2)c1 (configuration not stated) | inactive: 1.15%
29 | CP(=O)(Nc1ccc(Cl)cc1Cl)Oc1ccccc1 (configuration not stated) | inactive: -1.74%
30 | CP(=O)(OCCOc1ccccc1)OCCOc1ccccc1 | inactive: -1.15%
31 | Cc1nc2ccc3ccccc3c2o1.O=[N+]([O-])c1cc([N+](=O)[O-])c(O)c([N+](=O)[O-])c1 | inactive: 5.55%
32 | COc1ccc(OP(C)(=O)Nc2ccccn2)cc1 (configuration not stated) | inactive: -1.5%
33 | CN(C)CCOC(=O)C(O)(c1ccccc1)C1CCCC1 (configuration not stated) | inactive: -2.72%
34 | COc1ccccc1OP(C)(=O)Nc1ccc(Br)cc1 (configuration not stated) | inactive: -1.66%
35 | COc1ccccc1OP(C)(=O)Nc1ccc(C)cc1C (configuration not stated) | inactive: 0.01%
36 | CP(=O)(Nc1ccccn1)Oc1ccccc1 (configuration not stated) | inactive: -2.18%
37 | CCc1ccc(OP(C)(=O)O)cc1 | inactive: -0.6%
38 | Cc1c(NP(C)(=O)Oc2ccc(C(C)C)cc2)c(=O)n(-c2ccccc2)n1C (configuration not stated) | inactive: 1.35%

Row | Compound | reporter increase
39 | CP(=O)(Nc1ccccc1F)Oc1ccccc1 (configuration not stated) | inactive: 3.29%
40 | CC(C)c1ccc(OP(C)(=O)Nc2ccc(SC(F)(F)F)cc2)cc1 (configuration not stated) | inactive: -1.91%
41 | O=C(OC1CN2CCC1CC2)c1ccc([N+](=O)[O-])cc1 (configuration not stated) | inactive: -2.27%
42 | O=C(OCCN1CCN(CCOCc2ccccc2)CC1)C(O)(c1ccccc1)c1ccccc1 | inactive: -3.05%
43 | CCOC(=O)c1ccc(NP(C)(=O)Oc2ccc(F)cc2)cc1 (configuration not stated) | inactive: 1.18%
44 | COc1ccc(OP(C)(=O)Nc2ccc(SC(F)(F)F)cc2)cc1 (configuration not stated) | inactive: -1.72%
45 | CP(=O)(Nc1ccccc1)Oc1ccc(F)cc1 (configuration not stated) | inactive: 4.17%
46 | CCCCCOc1ccc(NP(C)(=O)Oc2ccc(Cl)cc2Cl)cc1 (configuration not stated) | inactive: -2.94%
47 | CCN(CC)CCCOC(=O)C(O)(c1ccccc1)C1CCCCC1 (configuration not stated) | inactive: -1.05%
48 | CN(C)CCOC(=O)C(O)(c1ccccc1)C1CCCCC1 (configuration not stated) | inactive: -1.97%
49 | COc1ccc(NP(C)(=O)Oc2ccccc2OC)cc1 (configuration not stated) | inactive: -0.04%
50 | COc1ccc(OP(C)(=O)Nc2cccc(Br)c2)cc1 (configuration not stated) | inactive: 0.82%
51 | O=[N+]([O-])c1ccc(OP2(=O)COCCO2)cc1 (configuration not stated) | inactive: -2.48%
52 | O=[N+]([O-])c1cc([N+](=O)[O-])c(NCC2CCS(=O)(=O)C2)c([N+](=O)[O-])c1 (configuration not stated) | inactive: -1.03%
53 | Cc1cc(-c2cccc3ccccc23)c(C)cn1.O=[N+]([O-])c1cc([N+](=O)[O-])c(O)c([N+](=O)[O-])c1 | inactive: 3.22%
54 | CCOP(C)(=S)SCC(=O)NC(C)(CC)C(=O)O (configuration not stated) | inactive: -2.57%
55 | CP(=O)(Nc1ccc(SC(F)(F)F)cc1)Oc1ccc(F)cc1 (configuration not stated) | inactive: -0.4%
56 | Cc1ccccc1NP(C)(=O)Nc1ccccc1C | inactive: 3.96%
57 | CP(=O)(Nc1ccc2c(c1)OCCO2)Oc1ccccc1 (configuration not stated) | inactive: 0.3%
